Assay results from PMC8533642 (Journal of medicinal chemistry, 2021).

Sequences of proteins named here, by UniProt entry; tags and fusion partners are left off.
UniProt P56450, whole entry: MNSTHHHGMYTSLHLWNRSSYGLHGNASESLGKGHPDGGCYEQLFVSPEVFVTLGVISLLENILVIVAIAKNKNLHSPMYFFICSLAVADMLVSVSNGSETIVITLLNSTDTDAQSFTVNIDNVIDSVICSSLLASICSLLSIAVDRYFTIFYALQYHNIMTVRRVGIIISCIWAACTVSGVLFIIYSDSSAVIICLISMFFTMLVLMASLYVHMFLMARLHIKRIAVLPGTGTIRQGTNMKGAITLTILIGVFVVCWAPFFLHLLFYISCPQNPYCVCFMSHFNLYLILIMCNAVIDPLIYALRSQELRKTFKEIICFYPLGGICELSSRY

Molecular target: mMC4R (Mus musculus, UniProt P56450)
Settings: mMC4R versus mMC3R antagonist potency

SMILES: CC(=O)N[C@H](Cc1ccc(I)cc1)C(=O)N[C@@H](CCCNC(=N)N)C(=O)N[C@@H](Cc1ccc2ccccc2c1)C(=O)N[C@@H](CCCNC(=N)N)C(N)=O [Peptide 48, Ac-DPhe(pI)-Arg-Nal(2’)-Arg-NH2]
- selectivity for the mMC4R over the mMC3R (antagonist): 15 fold
